Measured values taken from US11759451B2, “Therapeutic potential of glycopyrrolate and mexiletine for nervous system injury” (City University of Hong Kong, priority 2020, dated 2023).

Tested on: optic nerve crush injury
Settings: intravitreal 1 μg weekly plus i.p. 2 mg/kg daily for 7 days

Compound: C[N+]1(C)CCC(OC(=O)C(O)(c2ccccc2)C2CCCC2)C1 (centres unmarked) [glycopyrrolate]
- increase in the number of CTB-labelled regenerating axons at 2 mm distal to the lesion site (4 weeks after optic nerve crush, vs vehicle controls): more than 70 fold
- increase in the number of CTB-labelled regenerating axons extending 1.0 mm from the site of injury (14 days after optic nerve crush, vs saline vehicle): more than 17 fold
